The chains behind the UniProt entries cited, without tags or fusion partners.
UniProt Q07820, whole entry: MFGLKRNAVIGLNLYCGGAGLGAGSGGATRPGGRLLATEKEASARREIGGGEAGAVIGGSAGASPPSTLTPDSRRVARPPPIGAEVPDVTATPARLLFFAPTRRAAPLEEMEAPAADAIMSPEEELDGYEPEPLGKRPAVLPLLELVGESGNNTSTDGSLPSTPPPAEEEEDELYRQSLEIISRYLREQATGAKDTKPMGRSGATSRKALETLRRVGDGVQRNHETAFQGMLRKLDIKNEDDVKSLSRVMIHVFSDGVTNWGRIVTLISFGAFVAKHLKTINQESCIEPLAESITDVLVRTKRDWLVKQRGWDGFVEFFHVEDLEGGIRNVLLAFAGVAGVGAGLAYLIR

According to ChEMBL document CHEMBL5335817, “Discovery and optimization of (2-naphthylthio)acetic acid derivative as selective Bfl-1 inhibitor” (Bioorg Med Chem Lett, 2024):

Biological target: Induced myeloid leukemia cell differentiation protein Mcl-1 (Homo sapiens, UniProt Q07820)

## COc1c(SCC(=O)O)cc(NS(=O)(=O)c2ccc(-c3ccccc3)cc2)c2ccccc12
  pKi: 5.31

pKi: −log10 of the molar value.
